Experimental data as given in patent US6951881B2, “(1-substituted-indol-3-yl) alkylidenehydrazinecarboximidamide derivatives as 5-hydroxytryptamine-6 ligands” (Wyeth, priority 2002, dated 2005).

Chains of the proteins cited; added tags and fusions are not shown.
UniProt P50406, whole entry: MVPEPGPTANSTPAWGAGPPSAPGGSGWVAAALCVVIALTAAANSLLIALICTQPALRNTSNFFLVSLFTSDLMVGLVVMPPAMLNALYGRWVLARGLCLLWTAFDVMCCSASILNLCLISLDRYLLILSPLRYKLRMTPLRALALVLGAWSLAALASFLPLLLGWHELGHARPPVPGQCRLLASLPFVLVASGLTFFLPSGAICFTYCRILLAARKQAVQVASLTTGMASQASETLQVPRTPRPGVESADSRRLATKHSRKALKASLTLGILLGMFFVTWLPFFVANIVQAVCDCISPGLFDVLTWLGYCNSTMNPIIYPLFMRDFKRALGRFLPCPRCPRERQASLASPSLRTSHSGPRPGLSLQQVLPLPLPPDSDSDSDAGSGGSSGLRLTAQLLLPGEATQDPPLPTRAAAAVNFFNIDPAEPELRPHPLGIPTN

Target: human cloned 5-HT6 receptors (Homo sapiens, UniProt P50406)
Assay type: binding
Conditions: for Ki: read-out: 5-HT6 Binding Ki, [3H]-LSD 3.0 nM, Hela cell membranes; for % Inhibition: test compound dose 1000 nM, displacement of [3H]-LSD
Description: This operation is repeated.
The reaction is allowed to proceed in the dark for 120 min at room temperature, at which time, the bound ligand-receptor complex is filtered off on a 96 well unifilter with a Packard Filtermate® 196 Harvester. The bound complex caught on the filter disk is allowed to air dry and the radioactivity is measured in a Packard TopCount® equipped with six photomultiplier detectors, after the addition of 40.0 μl Microscint®-20 scintillant to each shallow well. The unifilter plate is heat-sealed and counted in a PackardTopCount® with a tritium efficiency of 31.0%.
Specific binding to the 5-HT6 receptor is defined as the total radioactivity bound less the amount bound in the presence of 10.0 μM unlabeled methiothepin. Binding in the presence of varying concentrations of test compound is expressed as a percentage of specific binding in the absence of test compound. The results are plotted as logit % bound versus log concentration of test compound. Nonlinear regression analysis of data points with a computer assisted program Prism® yields both the IC50 and the Ki values of test compounds with 95% confidence limits.
The amount of displacement by the test compound is given in percent (%) inhibition and is derived from the following equation: [formula] where B0 is the amount of CPM bound in the presence of the testing agent. NSB represents the CPM bound in the presence of a saturating concentration of a displacer and TB represents the total amount of CPM bound at zero (0) concentration of test compound.
Alternatively, a linear regression line of decline of data points is plotted, from which the IC50 value can be read off and the Ki value determined by solving the following equation: [formula] where L is the concentration of the radioactive ligand used and KD is the dissociation constant of the ligand for the receptor, both expressed in nM.

SMILES	Ki	% Inhibition
CC(=NNC(=N)N)c1cn(C)c2ccc(NS(=O)(=O)c3ccc(Br)s3)cc12	2 nM	99.0%
CC(=NNC(=N)N)c1c[nH]c2ccc(NS(=O)(=O)c3cc(Cl)c(Cl)s3)cc12	1 nM	99.0%
CC(=NNC(=N)N)c1cn(C)c2ccc(NS(=O)(=O)c3ccc(Br)cc3)cc12	3 nM	99.2%
